The values that follow come from ChEMBL document CHEMBL3120159, “Discovery of 2-pyridone derivatives as potent HIV-1 NNRTIs using molecular hybridization based on crystallographic overlays” (Bioorg Med Chem, 2014).

As usually defined, the pIC50 is −log10 of the IC50, conventionally taken in molar units.

pIC50: −log10 of the molar value.

In this assay the target is Human immunodeficiency virus type 1 reverse transcriptase (Human immunodeficiency virus 1, UniProt Q72547). The assay can be described thus: Inhibition of HIV1 reverse transcriptase assessed as inhibition of biotinylated dUTP incorporation after 1 hr by ELISA. On the technique in general: ELISA stands for enzyme-linked immunosorbent assay.

With `Cc1cc(C#N)cc(C)c1Oc1nc(Nc2ccc(C#N)cc2)nc(N)c1Br` [ETRAVIRINE], the negative logarithm of the IC50 (pIC50) is 6.74.
